The values that follow come from patent publication US20230077723A1, “N-SUBSTITUTED-3,4-(FUSED 5-RING)-5-PHENYL-PYRROLIDINE-2-ONE COMPOUNDS AS INHIBITORS OF ISOQC AND/OR QC ENZYME” (Scenic Immunology B.V., priority 2019, published 2023).

The chains behind the UniProt entries cited, without tags or fusion partners. Residues count along the entry.
UniProt Q9NXS2, 53-382 limits assumed: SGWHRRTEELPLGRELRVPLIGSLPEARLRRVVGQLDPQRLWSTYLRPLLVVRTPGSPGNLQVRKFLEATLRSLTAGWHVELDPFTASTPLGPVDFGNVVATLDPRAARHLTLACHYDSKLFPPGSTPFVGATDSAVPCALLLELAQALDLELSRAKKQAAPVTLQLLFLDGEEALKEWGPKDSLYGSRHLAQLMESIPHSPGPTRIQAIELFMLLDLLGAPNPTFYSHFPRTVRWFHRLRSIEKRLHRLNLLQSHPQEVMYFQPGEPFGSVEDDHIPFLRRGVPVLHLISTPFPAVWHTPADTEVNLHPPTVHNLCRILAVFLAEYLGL
UniProt Q16769, 33-361 limits assumed: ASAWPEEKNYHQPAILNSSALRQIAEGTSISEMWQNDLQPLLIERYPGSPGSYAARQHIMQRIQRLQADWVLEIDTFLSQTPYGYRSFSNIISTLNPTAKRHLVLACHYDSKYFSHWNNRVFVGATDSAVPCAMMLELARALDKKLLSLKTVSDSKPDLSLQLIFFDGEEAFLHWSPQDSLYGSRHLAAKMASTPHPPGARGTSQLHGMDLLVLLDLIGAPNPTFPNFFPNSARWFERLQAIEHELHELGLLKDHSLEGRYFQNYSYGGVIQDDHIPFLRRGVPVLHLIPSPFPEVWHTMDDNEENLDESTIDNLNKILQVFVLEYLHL
UniProt Q16769, 29-361 limits assumed: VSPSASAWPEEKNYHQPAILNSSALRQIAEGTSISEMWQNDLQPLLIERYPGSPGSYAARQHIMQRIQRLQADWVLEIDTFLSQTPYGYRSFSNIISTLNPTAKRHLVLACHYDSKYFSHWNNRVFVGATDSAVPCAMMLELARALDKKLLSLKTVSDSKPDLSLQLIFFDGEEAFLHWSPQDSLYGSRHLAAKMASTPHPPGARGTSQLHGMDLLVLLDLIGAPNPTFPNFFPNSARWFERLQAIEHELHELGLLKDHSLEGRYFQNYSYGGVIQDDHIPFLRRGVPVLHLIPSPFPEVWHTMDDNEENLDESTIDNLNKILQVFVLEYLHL

pIC50: −log10 of the molar value.

In experiment [1] the target is T1, human isoQC (S53-L382) (Homo sapiens, UniProt Q9NXS2). In words: Assay 1 - isoQC inhibition, fluorescent enzymatic assay (single concentration). Conditions: isoQC inhibition at 250 nM test compound. The procedure: Initially, isoQC inhibitory activity was measured at a single concentration in a fluorescent-based assay (Assay 1 below). In order to establish the inhibitory activity more quantitatively, IC50 values were obtained using a mass spectrometry-based assay where pyroglutamylation by either isoQC or QC was measured (Assays 2 and 4, respectively, below). Alternatively, IC50 values for isoQC or QC were obtained using a fluorescence-based assay (Assays 3 and 5 respectively, below).
(§1) The Golgi luminal, enzymatically active region of human isoQC (S53-L382; see, e.g., Huang et al., 2011) was obtained by expression in E. coli of an N-terminally GST-Enterokinase and C-terminally 6×His tagged construct in the pET41(+) vector and subsequent purification using talon beads and GST beads, enterokinase digestion and further purification with a final formulation in 25 mM Tris pH 8.0/150 mM NaCl/1 mM TCEP. Absence of pyroglutamylating activity in an enzymatic dead variant that was cloned, expressed, and purified in parallel ruled out that the purification strategy isolates any endogenously present pyroglutamylating activity.
(§2) Pyroglutamylation was measured by conversion of glutamine-4-amino-7-methylcoumarine (H-Gln-AMC, Bachem) to pyroglutamyl-AMC, which is subsequently a specific substrate for pyroglutamylaminopeptidase (pGAPase, Qiagen), releasing free AMC which can be fluorescently detected. For a typical inhibition assay, 15 μL 20 μM h-Gln-AMC (diluted from a 40 mM stock dissolved in 25 mM HEPES using 50 mM Tris-HCl pH 8.0) was pipetted into a 96-well plate on ice. Next, 7.5 μL 1 μM test compound (diluted from a 10 mM stock dissolved in DMSO using 50 mM Tris-HCl) was added. Finally, 7.5 μL, 3 ng/μL recombinant isoQC enzyme was added and the reaction mixture was incubated for 1 hour at 37° C. A 5 minute incubation at 98° C. was then performed to denature the isoQC enzyme and stop the reaction.
To detect the amount of pyroglutamyl-AMC formed, a 96-well plate was prepared with 25 μL 0.125 U/mL pGAPase enzyme diluted in 50 mM Tris-HCl pH 8.0 containing 10 mM dithiothreitol (DTT). 25 μL of the pyroglutamylation reaction mixture was transferred into the plate containing the pGAPase solutions while on ice. Once done, the plate was moved over to a Spectramax ID3 fluorescent plate-reader to monitor and record the maximum fluorescence at 380 nm excitation/450 nm emission over a period of 20 minutes while keeping the temperature at 37° C.
DMSO concentrations during the assay never exceeded 1% and activities were compared to controls containing only the same amount of DMSO and no test compound. […] Test compounds were reported as active when <40% of background corrected signal was measured as compared to DMSO controls.

The target of a further experiment is recombinant human QC (Homo sapiens, UniProt Q16769). In words: Assay 4 - QC potency, mass spectrometry-based enzymatic potency assay. The note with it: read-out: QC Pot. Assay No. 4. How it is done:
(§3) EC50's of test compounds were determined by incubating 11-point two-fold dilutions of test compound in 20 μL volumes in the presence of 7.5 nM isoQC and 10 μM H-Gln-AMC using 50 mM Tris-HCl pH 8.0 as assay buffer for 2 hours at room temperature before stopping the reaction by the addition of 2 volumes of methanol. Both the substrate and the product of this reaction were read out using an Agilent RapidFire microfluidic solid phase sample extraction system coupled to an AB Sciex API 4000 triple quadrupole mass spectrometer, in negative ion mode, at m/z of 301.9 and 284.9 respectively. The actual readout was defined as P/(S+P), where P is the product signal area and S the substrate signal area. EC50's were calculated by four parameter sigmoidal model fitting.
EC50's of test compounds were determined in the same way as described in Assay 2 above, except that N-terminally His6-tagged recombinant human QC (R&D Systems) was used instead of isoQC.

The target in experiment [2] is T1, human isoQC (S53-L382). In words: Assay 2 - isoQC potency, mass spectrometry-based enzymatic potency assay. The note with it: read-out: isoQc Pot. Assay No. 2, 7.5 nM isoQC, 10 μM H-Gln-AMC. How it is done:
as §1, §3

Experiment [3] has as its system pyroglutamylated CD47 (pE-CD47) in KBM7 cells. In words: Assay 6 - cell-based potency assay (pE-CD47 CC2C6 staining vs total CD47). The note with it: read-out: Cell Pot. Assay No. 6, 72 hours, CC2C6 signal. The procedure:
Cells were spun for 4 minutes at 1500 rpm and washed once with PBS/0.5% BSA. Cells were spun down again and the supernatant was removed and incubated in 100 uL antibody staining solution (PBS/0.5% BSA/0.1 μg/mL DAPI (4′,6-diamidino-2-phenylindole, ThermoFisher Scientific) and a mixture of 1:500 FITC-conjugated anti-human CD47 clone 2D3, which recognizes total CD47 irrespective of its pyroglutamylation state, and 1:500 Alexa647-conjugated anti-human CD47 clone CC2C6, which specifically detects pyroglutamylated CD47) for 2 hours at 4° C. Next, the cells were spun down and washed twice with 2×150 μL PBS/0.5% BSA to remove unbound antibody. Cells were again spun down and taken up in 300 μL FACS buffer before analysis on a Celesta FACS machine (BD Biosciences).
KBM7 cells (Kotecki et al., 1999) were infected with lentivirus produced by transfecting pSCNC-LentiCRISPR-QPCTL or pSCNC-LentiCRISPR-CD47 into HEK-293T cells according to standard protocols. After 24 hours incubation, cells were selected with puromycin (Invivogen, 1 μg/mL) for 48 hours. Cells were stained for total CD47 and pE-CD47 and QPCTL k.o. cells were sorted out as negative for pE-CD47, and CD47 k.o. cells as negative for total CD47, using a FACSAria III and FACS Diva software (BD Biosciences).
In order to test compounds for their effect on pyroglutamylation in live cells, 25000 KBM7 cells per well were seeded in a 96-well U-bottom plate in 150 μl IMDM/10% FCS/1% Pen/Strep medium and a 10-point 2-fold dilution range of test compounds. After 72 hours incubation at 37° C., 5% CO2, cells were stained for total CD47 and pE-CD47 and analyzed on a BD Celesta using FACS Diva software (BD Biosciences). Cells gated for DAPI negativity were recorded and the median fluorescence intensity (MFI) of each sample was transformed to linearly scale between the MFI's of wildtype and CD47 knockout cells (in case of the 2D3 antibody) and the wildtype and QPCTL knockout cells (in case of the CC2C6 antibody). IC50's were calculated by 3 parameter logistic regression of the CC2C6 signal vs. compound concentration, where the top of the sigmoidal curve was fixed at 1, using R and the drc package (http://www.r-project.org, https://cran.r-project.org/web/packages/drc/index.html).

The target of experiment [4] is Recombinant QC enzyme (residues 33-361 of uniprot ID Q16769) (Homo sapiens, UniProt Q16769). The experiment can be described thus: Assay 5 - QC potency, fluorescent enzymatic assay. The note with it: read-out: QC Pot. Assay No. 5.
Excerpt: Recombinant QC enzyme was produced by bacterial expression of residues 33-361 of uniprot ID Q16769, fused to a His tag, codon optimized and cloned into the pET32a plasmid backbone. After scale-up, expression and lysis, protein was purified by Ni-NTA IMAC, dialysed in the presence of Factor Xa, further purified by Ni-NTA reverse IMAC and finally filtrated for size on a Superdex 200 16/60 column. Final protein was concentrated using a spin concentrator at 10 kDa molecular weight cutoff and formulated in 150 mM NaCl, 50 mM Tris-HCl, 50% Glycerol, pH 8.0.
as §2, with “assay, 7.5 μL aliquots of threefold dilutions of test compound in 50 mM Tris pH8 buffer were plated in 384-well plates.” for “assay,”, “added to each well.” for “pipetted into a 96-well plate on ice. Next, 7.5 μL 1 μM test compound (diluted from a 10 mM stock dissolved in DMSO using 50 mM Tris-HCl) was added.”, “QC” for “isoQC”
(§4) To detect the amount of pyroglutamyl-AMC formed, a 0.125 U/mL pGAPase enzyme diluted in 50 mM Tris-HCl pH 8.0 containing 10 mM dithiothreitol (DTT) solution was prepared. 25 μL of the pyroglutamylation reaction mixture was transferred into an empty plate and to that, 25 μL of the pGAPase enzyme solution was added. Plates were then incubated for 25 minutes at room temperature before fluorescence readings were taken on an Envision2 plate reader with excitation set at 380 nm and emission at 450 nm.
DMSO concentrations during the assay never exceeded 1% and activities were compared to controls containing only the same amount of DMSO and no test compound. Controls were taken along containing pyroglutamylated-AMC (Bachem, dissolved at 10 mM in DMSO) instead of H-Gln-AMC to control for pGAPase inhibition.
IC50 values are calculated using non-linear regression analysis with GraphPad Prism software.

The target in experiment [5] is T1, human isoQC (S53-L382). The experiment can be described thus: Assay 3 - isoQC potency, fluorescent enzymatic assay. The note with it: read-out: isoQc Pot. Assay No. 3. The procedure:
For this assay specifically, isoQC production was performed slightly different than described in the general methods: The Golgi luminal, enzymatically active region of human isoQC (S53-L382; see, e.g., Huang et al., 2011) was obtained by expression in E. coli of an N-terminally GST Enterokinase and C-terminally 6×His tagged construct in the pET41(+) vector and subsequent purification using Ni-NTA IMAC. Enterokinase digestion ensued, followed by another Ni-NTA IMAC purification, Superdex75 based size exclusion and finally a spin concentration using a 10 kDa molecular weight cutoff. The final protein is formulated in 50 mM Tris-HCl, 150 mM NaCl, 50% Glycerol, pH 7.8.
as §2, with “assay, 7.5 μL aliquots of threefold dilutions of test compound in 50 mM Tris pH8 buffer were plated in 384-well plates.” for “assay,”, “added to each well.” for “pipetted into a 96-well plate on ice. Next, 7.5 μL 1 μM test compound (diluted from a 10 mM stock dissolved in DMSO using 50 mM Tris-HCl) was added.”
as §4
DMSO concentrations during the assay never exceeded 1% and activities were compared to controls containing only the same amount of DMSO and no test compound. Controls were taken along containing pyroglutamylated-AMC (Bachem, dissolved at 10 mM in DMSO) instead of H-Gln-AMC to control for pGAPase inhibition. IC50 values are calculated using non-linear regression analysis with GraphPad Prism software.

In the case of `CCCOc1ccc(C2c3c(nn(C)c3C(C)C)C(=O)N2c2ccc3[nH]cnc3c2)cc1` (single isomer, unassigned), the “isoQc Inh. Assay No. 1” value on human isoQC (S53-L382) [1] was “+ ((+) > 40% isoQC inhibition at 250 nM)”. The pIC50 on recombinant human QC was 7.00 to 7.60; on human isoQC (S53-L382) [2] it was 7.00 to 7.60; in experiment [3], more than 6.00.

As for `CCCOc1ccc(C2c3c(nn(C)c3C)C(=O)N2c2ccc3[nH]cnc3c2)c(F)c1` (single isomer, unassigned), the “isoQc Inh. Assay No. 1” value at human isoQC (S53-L382) [1] is on record as “+ ((+) > 40% isoQC inhibition at 250 nM)”. Besides, the figures for the pIC50 (on recombinant human QC; at human isoQC (S53-L382) [2]; in experiment [3]) were 7.00 to 7.60, more than 7.60 and more than 6.00, respectively.

On to `Cc1c2c(nn1C)C(=O)N(c1ccn3ccnc3c1)C2c1ccc(N2CCC(F)(F)C2)cc1F` (single isomer, unassigned) [FRPPO-158B], for which the pIC50 (in experiment [4]; on human isoQC (S53-L382) [5]) was 5.30 to 7.00 throughout.

For `Cc1c2c(nn1C)C(=O)N(c1ccn3ccnc3c1)C2c1ccc(N2CCC(F)(F)C2)cc1F` (single isomer, unassigned) [FRPPO-158C], the pIC50 (in experiment [4]; at human isoQC (S53-L382) [5]) was 7.00 to 7.60 throughout.

As to `Cc1[nH]nc2c1C(c1ccc(N3CCC(F)(F)C3)cc1F)N(c1ccn3ccnc3c1)C2=O` (single isomer, unassigned) [FRPPO-159B], the pIC50 (in experiment [4]; on human isoQC (S53-L382) [5]) was 5.30 to 7.00 in each case.

In the case of `Cc1[nH]nc2c1C(c1ccc(N3CCC(F)(F)C3)cc1F)N(c1ccn3ccnc3c1)C2=O` (single isomer, unassigned) [FRPPO-159C], the pIC50 in experiment [4] was 5.30 to 7.00; on human isoQC (S53-L382) [5], more than 7.60.

`Cc1c2c(nn1C)C(=O)N(c1ccn3ccnc3c1)C2c1ccc(-c2cnn(C(F)(F)F)c2)cc1F` (single isomer, unassigned) [FRPPO-160B]: the pIC50 in experiment [4] was less than 5.30; on human isoQC (S53-L382) [5], 5.30 to 7.00; in experiment [3] it was 4.30 to 5.30.

Consider `Cc1c2c(nn1C)C(=O)N(c1ccn3ccnc3c1)C2c1ccc(-c2cnn(C(F)(F)F)c2)cc1F` (single isomer, unassigned) [FRPPO-160C], for which the pIC50 in experiment [4] was more than 7.60; on human isoQC (S53-L382) [5] it was more than 7.60; in experiment [3], more than 6.00.

With `Cc1[nH]nc2c1C(c1ccc(-c3cnn(C(F)(F)F)c3)cc1F)N(c1ccn3ccnc3c1)C2=O` (single isomer, unassigned) [FRPPO-162B], the pIC50 (in experiment [4]; at human isoQC (S53-L382) [5]) was 5.30 to 7.00 throughout.

For the molecule `Cc1[nH]nc2c1C(c1ccc(-c3cnn(C(F)(F)F)c3)cc1F)N(c1ccn3ccnc3c1)C2=O` (single isomer, unassigned) [FRPPO-162C], the pIC50 in experiment [4] is 7.00 to 7.60; on human isoQC (S53-L382) [5], more than 7.60; in experiment [3], more than 6.00.
